The target of the assay is T1, SIRT2 (Homo sapiens, UniProt Q8IXJ6).
T1 construct: For assay experiments, strep-tagged human SIRT1134−747 and SIRT256-356 were expressed and purified as previously; Strep-tag; made in house; host or cells: E. coli BL21 Star (DE3)
T1 sequence (Q8IXJ6 56-356 limits assumed): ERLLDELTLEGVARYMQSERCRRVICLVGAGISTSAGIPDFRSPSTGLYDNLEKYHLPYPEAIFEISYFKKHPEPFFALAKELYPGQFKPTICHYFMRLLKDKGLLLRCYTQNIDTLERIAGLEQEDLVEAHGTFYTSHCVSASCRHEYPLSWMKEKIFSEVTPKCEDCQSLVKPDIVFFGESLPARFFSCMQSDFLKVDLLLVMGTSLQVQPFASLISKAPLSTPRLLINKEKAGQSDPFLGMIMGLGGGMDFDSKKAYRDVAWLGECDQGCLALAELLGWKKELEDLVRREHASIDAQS
Kind of assay: Differential scanning fluorimetry (DSF) / fluorescence thermal shift assay. The format is binding. (In general: In DSF a fluorescence change marks the thermal transition of the protein.)

On to `Cc1cc(C)nc(SCC(=O)Nc2ncc(Cc3cccc(OCc4cn(Cc5ccc(OCCN6CCOCC6)cc5)nn4)c3)s2)n1` [Compound 2, reference compound], for which the “ΔTm, difference in SIRT2 melting temperature upon NAD+ addition compared to NAD+ exclusion” value amounted to 0.5 °C.
